These results are taken from ChEMBL document CHEMBL5257080, “Optimization of physicochemical properties of pyrrolidine GPR40 AgoPAMs results in a differentiated profile with improved pharmacokinetics and reduced off-target activities” (Bioorg Med Chem, 2023).

Amino acid sequences for entries named in this document (tags omitted).
UniProt O14842, whole entry: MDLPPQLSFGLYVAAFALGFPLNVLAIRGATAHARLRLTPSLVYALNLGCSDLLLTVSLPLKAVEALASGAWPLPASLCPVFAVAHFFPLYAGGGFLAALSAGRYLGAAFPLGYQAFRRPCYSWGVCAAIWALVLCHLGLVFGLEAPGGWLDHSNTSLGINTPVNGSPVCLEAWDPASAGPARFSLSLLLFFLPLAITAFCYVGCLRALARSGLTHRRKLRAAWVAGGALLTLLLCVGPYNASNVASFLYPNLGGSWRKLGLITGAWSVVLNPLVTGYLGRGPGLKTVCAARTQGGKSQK

The structures appear in SMILES notation.

This experiment has as its target Free fatty acid receptor 1 (Homo sapiens, UniProt O14842). In words: Positive allosteric modulation of human GPR40 expressed in HEK293 cells assessed as maximum efficacy relative to control. It counts as cell-based. The settings on record: filed as positive allosteric modulator.

`COc1ccc(F)c(N2CCC(Oc3ccc(N4CCC[C@H]4CC(=O)O)cc3)CC2)c1`: the Emax was determined as 62%.

Consider `COc1ccc(F)c(N2CCC(Oc3ccc(N4CCC[C@@H]4CC(=O)O)cc3)CC2)c1`, for which the Emax was 92%.

What is called Emax is the size of the effect at its maximum, as opposed to the concentration needed.
